# Laboratory results: PMC8050233, “Biased cytochrome P450-mediated metabolism via small-molecule ligands binding P450 oxidoreductase” (Nature Communications, 2021)
# By UniProt entry, the sequences of proteins in these tests, tags left out. Where a name states a change or a piece, a line headed by the entry shows the natural chain unless it says otherwise.
# UniProt C5YJG8: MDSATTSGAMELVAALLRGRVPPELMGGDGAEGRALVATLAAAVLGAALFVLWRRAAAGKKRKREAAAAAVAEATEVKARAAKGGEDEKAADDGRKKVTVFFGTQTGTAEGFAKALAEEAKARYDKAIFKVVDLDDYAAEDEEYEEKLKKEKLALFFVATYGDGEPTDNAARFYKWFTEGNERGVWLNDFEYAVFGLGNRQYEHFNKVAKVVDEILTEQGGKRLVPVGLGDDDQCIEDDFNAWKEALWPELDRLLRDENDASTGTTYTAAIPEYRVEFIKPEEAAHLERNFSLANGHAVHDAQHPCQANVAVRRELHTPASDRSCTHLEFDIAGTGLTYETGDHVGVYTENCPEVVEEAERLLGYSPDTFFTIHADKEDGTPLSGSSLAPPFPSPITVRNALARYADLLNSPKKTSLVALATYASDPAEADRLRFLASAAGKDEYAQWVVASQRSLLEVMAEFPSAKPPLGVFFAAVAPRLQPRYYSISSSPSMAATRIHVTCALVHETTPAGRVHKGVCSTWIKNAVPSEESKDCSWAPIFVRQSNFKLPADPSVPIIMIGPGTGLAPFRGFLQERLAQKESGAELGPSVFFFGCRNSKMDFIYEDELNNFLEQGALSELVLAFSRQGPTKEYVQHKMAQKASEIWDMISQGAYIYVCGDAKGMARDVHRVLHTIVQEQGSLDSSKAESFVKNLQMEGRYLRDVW
# Values joined by “and” are separate entries in the source; they are usually repeats but may differ in a detail not shown here. Equal values may be shown once. Read-outs that look alike come from different tables or passages of the source.
# Tests used:
# human POR [1] = biological target: T1, human POR (Homo sapiens, UniProt A0A9L9PY49); parameters: POR proteoliposome reduction of cytochrome c, MTT (absorbance) or resazurin (fluorescence), normalized to DMSO control
# T1 construct: full-length wild type in pET22b, expressed in E. coli BL21(DE3); bacterial membranes reconstituted in DLPC/DLPG liposomes without further purification, or used as microsomes
# T1 sequence (A0A9L9PY49 1-680): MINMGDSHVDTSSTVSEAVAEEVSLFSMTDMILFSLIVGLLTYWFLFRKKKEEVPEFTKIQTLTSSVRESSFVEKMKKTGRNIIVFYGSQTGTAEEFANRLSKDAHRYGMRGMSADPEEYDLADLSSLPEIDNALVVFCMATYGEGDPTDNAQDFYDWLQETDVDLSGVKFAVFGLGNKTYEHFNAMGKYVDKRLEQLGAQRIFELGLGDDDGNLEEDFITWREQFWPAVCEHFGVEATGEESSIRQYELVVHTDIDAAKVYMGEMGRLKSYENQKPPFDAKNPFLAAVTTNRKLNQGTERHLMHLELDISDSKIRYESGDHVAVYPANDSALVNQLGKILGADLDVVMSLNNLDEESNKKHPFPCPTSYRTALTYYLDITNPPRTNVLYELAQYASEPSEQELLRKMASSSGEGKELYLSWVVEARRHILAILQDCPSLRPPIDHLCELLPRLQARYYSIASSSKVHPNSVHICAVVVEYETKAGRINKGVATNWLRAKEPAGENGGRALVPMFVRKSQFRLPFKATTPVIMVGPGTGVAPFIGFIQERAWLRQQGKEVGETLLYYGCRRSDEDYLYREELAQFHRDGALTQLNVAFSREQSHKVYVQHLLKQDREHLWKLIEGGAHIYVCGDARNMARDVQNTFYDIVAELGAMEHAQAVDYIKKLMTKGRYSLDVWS
# Description: (§1) Using Cytc, MTT or RS as electron acceptors the change in absorbance (550 nm for Cytc and 610 nm for MTT) or emission (570 nm excitation, 585 nm emission for RS) was monitored as a function of time. Cytc and RS concentrations were both close to KM of the given electron acceptor, while MTT and NADPH were in excess amounts. Concentrations were 40 μM Cytc, 10 μM RS, 500 μM MTT and 100 μM NADPH unless otherwise stated. POR activity was extracted from the slope of the linear region of each trace. Michaelis–Menten kinetics and IC50 curves were performed under identical conditions using relevant substrate and ligand concentrations. All measurements were repeated at least three times and subsequently normalized to DMSO control measurements. […] Fluorescence intensities of resorufin in the presence of rifampicin were corrected according to a linear calibration curve (see Supplementary Fig. 7). Given that point-mutations in human POR can lead to altered specificity towards CYP isoforms[4],[19], we tested whether small-molecule ligands can bias the specificity of human POR to reduce diverse electron acceptors. […] (MTT)[32] (Fig. 2A). Each of the assays relies on spectral changes of the electron acceptor upon reduction by POR and thus directly reports on POR activity towards reducing the specific redox partner (see Supplementary Methods for details). Being comparative these assays exclude artefacts that may originate from potential FMN loss. […] POR plays an omnipotent role as an electron donor to microsomal CYPs in all eukaryotes and serves as a key metabolic hub in plants as well as humans. To test whether the effect of small-molecule ligand binding to POR is an omnipotent phenomenon underlying the regulation of POR in organisms from different kingdoms, we performed binding assays based on intrinsic fluorescence quenching and dose-response experiments on POR2b from the crop plant Sorghum bicolor (SbPOR2b) in proteoliposomes (Fig. 3A, B, Supplementary Fig. 6 and Supplementary Table 3).
# SbPOR2b = biological target: T2, SbPOR2b (Sorghum bicolor, UniProt C5YJG8); parameters: POR proteoliposome reduction of cytochrome c, MTT (absorbance) or resazurin (fluorescence), normalized to DMSO control
# T2 construct: gene CPR; full-length, expressed in E. coli NiCo21(DE3) from pET52b, purified on 2',5'-ADP Sepharose and Q-sepharose, in DLPC/DLPG proteoliposomes; mutant in lipid nanodiscs
# Description: as §1
# human POR [2] = biological target: T1, human POR; assay: cytochrome c reduction, absorbance […] nm; format: biochemical; settings: apparent activation; 40 μM cytochrome c, 100 μM NADPH, pH 7.5, proteoliposomes
smiles,measurement,setting,value
O=P1(N(CCCl)CCCl)NCCCO1 (centres unmarked) [cyclophosphamide],% of control remaining,human POR [1]; 10 µM,100.3 and 115
same,% of control remaining,human POR [1]; 100 µM,99.6 and 103.6
same,% of control remaining,SbPOR2b; 10 µM,100.1 and 98.1
same,% of control remaining,SbPOR2b; 100 µM,103.9 and 108.3
same,% of control at 100 μM,human POR [2],119 ± 14%
